Measured values taken from PubChem BioAssay AID651658 (Broad Institute, 2012).
This is a selection; strong and weak results do not stand in their true shares. Calls of active or inactive are those of the source.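 Rule for the calls: active = mean Tm shift, scaled 0 neutral to 100 positive control, at about 1.3% or above, every replicate too (limit read from the data); inconclusive = no clear call, values can overlap the other calls; inactive = the rest.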

Chains of the proteins cited; added tags and fusions are not shown.
UniProt Q9HCT0, whole entry: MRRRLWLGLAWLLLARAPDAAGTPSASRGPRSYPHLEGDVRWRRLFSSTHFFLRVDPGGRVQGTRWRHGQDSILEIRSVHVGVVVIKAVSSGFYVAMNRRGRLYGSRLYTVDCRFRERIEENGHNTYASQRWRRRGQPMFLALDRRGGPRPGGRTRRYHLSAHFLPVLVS

Target: Fibroblast growth factor 22 (Homo sapiens) (UniProt Q9HCT0)
Experiment: binders of human FGF22 protein, primary screen, FGF22 synaptogenesis inhibitor project, biophysical, thermal shift, single point (AID 651658)
Details: recombinant FGF22 thermal shift, SYPRO orange fluorescence; at 9.99 µM; stronger effect = higher value; percent of sucrose octasulfate shift, DMSO zero

Row | SMILES | activity (Tm shift, normalised)
1 | NC(=O)Nc1ccc([As](=O)(O)O)cc1 | inactive: 0.662%
